The record followed here is ChEMBL document CHEMBL4229327, “Chemical Approaches to Modulating Complement-Mediated Diseases” (J Med Chem, 2018).

Chains of the proteins cited; added tags and fusions are not shown.
UniProt P00746, whole entry: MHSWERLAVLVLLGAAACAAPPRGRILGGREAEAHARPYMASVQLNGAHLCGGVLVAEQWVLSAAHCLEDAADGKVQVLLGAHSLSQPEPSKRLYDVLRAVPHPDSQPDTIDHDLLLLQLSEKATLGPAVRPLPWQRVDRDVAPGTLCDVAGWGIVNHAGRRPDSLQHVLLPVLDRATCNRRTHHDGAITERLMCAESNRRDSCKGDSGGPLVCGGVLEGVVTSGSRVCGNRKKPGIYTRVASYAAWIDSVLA

For test [1], the target named is T1, Complement factor D (Homo sapiens, UniProt P00746).
In test [2] the target is T1, Complement factor D. This is another data set of the same source.
Test [3] addresses T1, Complement factor D. The source holds these as a separate data set.

`CC(=O)c1nn(CC(=O)N2C[C@H](F)C[C@H]2C(=O)Nc2cccc(Br)n2)c2ccc(-c3cnc(C)nc3)cc12` [DANICOPAN] returned a Kd on Complement factor D [1] of under 1 nM. The figures for the concentration for half-maximal inhibition (IC50) on Complement factor D [2] and against Complement factor D [3] were 15 nM and 4 nM, respectively.

Broadly, the Kd is a measure of binding affinity in units of concentration. The low end stands for tighter binding, the high end for weaker binding. As a reminder, the IC50 is the concentration needed to halve the response being measured. Higher therefore signals weaker potency.
